In series [1] the test system is Monocotyledonous and dicotyledonous weed. In words: Pre-emergence test on weeds (greenhouse, sprayed immediately after sowing). The conditions noted are these: fresh weight control rate; for activity level (growth control rate), Digitaria sanguinalis / activity level (growth control rate), Setaria viridis / activity level of plant damage (growth control rate), Triticum aestivum: sprayed immediately after sowing, 240 g a.i./ha, observed after 4 weeks in greenhouse; for activity level of plant damage (growth control rate), Triticum aestivum: crop Triticum aestivum. An excerpt: (§1) The criteria for activity levels of plant damage (i.e., growth control rate) are as follows: • Level 9: completely dead; • Level 8: growth control rate greater than or equal to 90% and less than 100%; • Level 7: growth control rate greater than or equal to 80% and less than 90%; • Level 6: growth control rate greater than or equal to 70% and less than 80%; • Level 5: growth control rate greater than or equal to 50% and less than 70%; • Level 4: growth control rate greater than or equal to 30% and less than 50%; • Level 3: growth control rate greater than or equal to 20% and less than 30%; • Level 2: growth control rate greater than or equal to 10% and less than 20%; • Level 1: growth control rate less than 10%; • Level 0: no effect.
(§2) The above growth control rates are fresh weight control rates.
Monocotyledonous and dicotyledonous weed seeds as well as major crop seeds were placed in plastic pots filled with soil and then covered with 0.5-2 cm of soil. The test compounds of the present invention were individually dissolved with acetone, then added with Tween® 80, diluted with certain amount of water to obtain solutions of certain concentrations, and sprayed immediately after sowing. After drug application, the experimental results on weeds were observed after 4 weeks of cultivation in a greenhouse. Table 3 Results of pre-emergence test on weeds

Series [2] has the same test system. In words: Post-emergence test on weeds (greenhouse, spray tower). The conditions noted are these: after 3 weeks of cultivation in a greenhouse, fresh weight control rate.
Description: as §1, §2
Monocotyledonous and dicotyledonous weed seeds as well as major crop seeds were placed in plastic pots filled with soil and then covered with 0.5-2 cm of soil to allow them grow in a favorable greenhouse environment. Two weeks after sowing, the test plants were treated. The test compounds of the present invention were individually dissolved with acetone, then added with Tween® 80 and the emulsifiable concentrate of methyl oleate as a synergist, diluted with certain amount of water to obtain solutions of certain concentrations, and sprayed to the plants using a spray tower. After drug application, the experimental results on weeds were collected after 3 weeks of cultivation in a greenhouse. Table 2 Results of post-emergence test on weeds

[3] abbreviates: Dosage 240 g a.i./ha, after 4 weeks in greenhouse.

SMILES strings stand for the structures.

Turning to `C=CC1(C(=O)N[C@@H](C)C(=O)N(C)OC)CC(c2cc(F)cc(Cl)c2)=NO1` (stereo partly shown), in series [1] (setting [3]), the “activity level of plant damage (growth control rate), Digitaria sanguinalis” value is 7 (Level 7: growth control rate greater than or equal to 80% and less than 90%); the “activity level of plant damage (growth control rate), Lolium multiflorum” value was 7 (Level 7: growth control rate greater than or equal to 80% and less than 90%); the “activity level of plant damage (growth control rate), Setaria viridis” value is 7 (Level 7: growth control rate greater than or equal to 80% and less than 90%). Besides, the “Avena fatua, activity level of plant damage (growth control rate)” value in series [2] (Dosage 240 g a.i./ha) was 9.
For `C=C(C)[C@]1(C(=O)N[C@@H](C)C(=O)NOCCCC2CCCC2)CC(c2cc(F)cc(F)c2)=NO1`, in series [1], the “activity level (growth control rate), Digitaria sanguinalis” value came to 9 and the “activity level (growth control rate), Setaria viridis” value stood at 9. Further, in series [2] (Dosage 60 g a.i./ha), the “Amaranthus retroflexus, activity level of plant damage (growth control rate)” value is 6 (Level 6: growth control rate greater than or equal to 70% and less than 80%); the “Digitaria sanguinalis, activity level of plant damage (growth control rate)” value (“Digitaria sanguinalis, activity level” for short) was 8 (Level 8: growth control rate greater than or equal to 90% and less than 100%); the “Echinochloa crus-galli, activity level of plant damage (growth control rate)” value (“Echinochloa crus-galli, activity level” below) was 8 (Level 8: growth control rate greater than or equal to 90% and less than 100%).
As to `C=C(C)[C@]1(C(=O)N[C@@H](C)C(=O)NOCC2=CCCC2)CC(c2cc(F)cc(Cl)c2)=NO1`, in series [1], the “activity level (growth control rate), Digitaria sanguinalis” value is 9 and the “activity level (growth control rate), Setaria viridis” value was determined as 9. In series [2] (Dosage 60 g a.i./ha), the “Digitaria sanguinalis, activity level” value was 8 (Level 8: growth control rate greater than or equal to 90% and less than 100%); the “Echinochloa crus-galli, activity level” value is 6 (Level 6: growth control rate greater than or equal to 70% and less than 80%).
`C=C(C)[C@]1(C(=O)NCC(=O)NOC)CC(c2cc(Cl)cc(Cl)c2)=NO1`: in series [1], the “activity level (growth control rate), Digitaria sanguinalis” value turned out to be 9; the “activity level (growth control rate), Setaria viridis” value is recorded as 9; the “activity level of plant damage (growth control rate), Triticum aestivum” value was 0. Moreover, in series [2] (Dosage 60 g a.i./ha), the “Digitaria sanguinalis, activity level” value is 6 (Level 6: growth control rate greater than or equal to 70% and less than 80%).
`C=C(C)[C@]1(C(=O)N[C@@H](C)C(=O)NOCc2cnccn2)CC(c2cc(F)cc(F)c2)=NO1`: in series [1], the “activity level (growth control rate), Digitaria sanguinalis” value is 8 (Level 8: growth control rate greater than or equal to 90% and less than 100%); the “activity level (growth control rate), Setaria viridis” value turned out to be 9; the “activity level of plant damage (growth control rate), Triticum aestivum” value came out at 0. In addition, in series [2] (Dosage 60 g a.i./ha), the “Digitaria sanguinalis, activity level” value is 8 (Level 8: growth control rate greater than or equal to 90% and less than 100%); the “Echinochloa crus-galli, activity level” value was 6 (Level 6: growth control rate greater than or equal to 70% and less than 80%).
As to `C=CCONC(=O)[C@H](C)NC(=O)[C@@]1(C(=C)C)CC(c2cc(F)cc(F)c2)=NO1`, in series [1] (Descurainia sophia, Dosage 240 g a.i./ha, after 4 weeks in greenhouse), the “activity level of plant damage (growth control rate), Descurainia sophia” value was 9. Also, in series [1] (setting [3]), the “activity level of plant damage (growth control rate), Digitaria sanguinalis” value was 9; the “activity level of plant damage (growth control rate), Lolium multiflorum” value turned out to be 9; the “activity level of plant damage (growth control rate), Setaria viridis” value was 9. Further, in series [2] (Dosage 60 g a.i./ha), the “Digitaria sanguinalis, activity level” value is 8 (Level 8: growth control rate greater than or equal to 90% and less than 100%); the “Echinochloa crus-galli, activity level” value was 8 (Level 8: growth control rate greater than or equal to 90% and less than 100%).

The values above are taken from patent EP4837910A1, “ISOXAZOLINE COMPOUND AND PREPARATION METHOD THEREFOR, HERBICIDAL COMPOSITION, AND USE” (dated 2026).
